Marks after values point to notes of the source that are not given here.
Legend:
Pimephales promelas = settings: cited from earlier work; for P. promelas 96-hr LC50: Example 4 table, mean LC50 from Toussaint et al., 1995; for P. promelas 96-h LC50: data from [13], median values of literature citations
Ceriodaphnia dubia = settings: data from [13], median values of literature citations; cited from earlier work
Daphnia magna = settings: cited from earlier work; for D. magna 48-h LC50: data from [13], median values of literature citations; for D. magna 48-h LC50, additional data in parentheses: updated AQUIRE literature survey
Nothobranchius guentheri = test: Rapid killifish 24 hour acute toxicity test with newly hatched fry; settings: for N. guentheri 24-HR LC50 / N. guentheri 24-HR EC50: Example 4 table; for N. guentheri 24-HR LC50: trimmed Spearman-Karber; for N. guentheri 24-HR EC50: trimmed Spearman-Karber (moving average for TNT, SDS); for N. guentheri 24-h EC50: median effective concentration (stress), trimmed Spearman-Karber unless noted (moving-average for 2,4-D, SDS); for N. guentheri 24-h EC50 / N. guentheri 24-h LC50: 25° C.; for N. guentheri 24-h LC50: median lethal concentration (death), fry 24 h post hatch, trimmed Spearman-Karber unless noted
Selenastrum capricornium = settings: data from [13], median values of literature citations; cited from earlier work
Mysidopsis bahia = settings: cited from earlier work; for M. bahia 96-h LC50: data from [13], median values of literature citations; for M. bahia 96-h LC50, additional data in parentheses: updated AQUIRE literature survey
[1] = embryos after 30-d storage at 21 to 25° C.
[2] = embryos after 90-d storage at 21 to 25° C.

**Q.** Which “P. promelas 96-hr LC50” value (Pimephales promelas) does the source give for `CCCCCCCCO` here?
**A.** Its value is 13.5 µg/mL.

**Q.** And the “P. promelas 96-h LC50” value (Pimephales promelas)?
**A.** The value was 13.5 µg/mL.

**Q.** What about the “P. promelas 96-h LC50, additional data in parentheses” value (Pimephales promelas; updated AQUIRE literature survey) of the same compound?
**A.** The value was “(13.5)^f mg/L”.

**Q.** What about the “C. dubia 48-h EC50” value (Ceriodaphnia dubia) of the same compound?
**A.** The value was 8.7 µg/mL.

**Q.** And the “D. magna 48-h LC50” value (Daphnia magna)?
**A.** The value was 37 µg/mL.

**Q.** What about the “N. guentheri 24-HR LC50” value (Nothobranchius guentheri) of the same compound?
**A.** Its value is 22.8 µg/mL.

**Q.** And the “N. guentheri 24-HR EC50” value (Nothobranchius guentheri)?
**A.** Its value is 11.5 mg/L.

**Q.** And the “N. guentheri 24-h EC50” value (Nothobranchius guentheri)?
**A.** The value was 12 µg/mL.

**Q.** What about the “N. guentheri 24-h LC50” value (Nothobranchius guentheri) of the same compound?
**A.** Its value is 23 µg/mL.

**Q.** What does the source list for `O=C(O)COc1ccc(Cl)cc1Cl`?
**A.** P. promelas 96-h LC50 (Pimephales promelas): 227 µg/mL; C. dubia 48-h EC50 (Ceriodaphnia dubia): 236 µg/mL; S. capricornium 96-h EC50 (Selenastrum capricornium): 96 µg/mL; D. magna 48-h LC50 (Daphnia magna): 25 µg/mL; N. guentheri 24-h EC50 (Nothobranchius guentheri): 80 µg/mL; N. guentheri 24-h LC50 (Nothobranchius guentheri): 90 µg/mL

**Q.** Which results are given for Zinc?
**A.** P. promelas 96-hr LC50 (Pimephales promelas): 2.65 µg/mL; P. promelas 96-h LC50 (Pimephales promelas): 2.65 µg/mL; C. dubia 48-h EC50 (Ceriodaphnia dubia): 0.076 µg/mL; S. capricornium 96-h EC50 (Selenastrum capricornium): 0.06 µg/mL; D. magna 48-h LC50 (Daphnia magna): 0.56 µg/mL; D. magna 48-h LC50, additional data in parentheses (Daphnia magna): (1.6)^c mg/L; M. bahia 96-h LC50 (Mysidopsis bahia): 0.50 µg/mL; M. bahia 96-h LC50, additional data in parentheses (Mysidopsis bahia): 0.30 µg/mL; N. guentheri 24-HR LC50 (Nothobranchius guentheri): 8.6 µg/mL; N. guentheri 24-HR EC50 (Nothobranchius guentheri): 5.75 mg/L; EC50, zinc reference test (Nothobranchius guentheri; [1]): 8.0 (6.1-10.5) mg/L; LC50, zinc reference test (Nothobranchius guentheri; [1]): 16.9 (12.5-22.8) mg/L; EC50, zinc reference test (Nothobranchius guentheri; embryos after 60-d storage at 21 to 25° C.): 7.5 (6.0-9.2) mg/L; LC50, zinc reference test (Nothobranchius guentheri; embryos after 60-d storage at 21 to 25° C., binomial method): 9.8 (7.0-13.9)^b mg/L; EC50, zinc reference test (Nothobranchius guentheri; [2]): 4.6 (4.0-5.3) mg/L; LC50, zinc reference test (Nothobranchius guentheri; [2]): 9.0 (7.9-10.2) mg/L; N. guentheri 24-h EC50 (Nothobranchius guentheri): 5.8 µg/mL; N. guentheri 24-h LC50 (Nothobranchius guentheri): 8.6 µg/mL

**Q.** Which “P. promelas 96-hr LC50” value (Pimephales promelas) does the source give for `CCCCCCCCCCCCOS(=O)(=O)[O-].[Na+]` here?
**A.** The value was 8.0 µg/mL.

**Q.** What about the “P. promelas 96-h LC50” value (Pimephales promelas) of the same compound?
**A.** Its value is 8.0 µg/mL.

**Q.** What about the “C. dubia 48-h EC50” value (Ceriodaphnia dubia) of the same compound?
**A.** The value was 48 µg/mL.

**Q.** What about the “S. capricornium 96-h EC50” value (Selenastrum capricornium) of the same compound?
**A.** Its value is 3.8 µg/mL.

**Q.** What about the “D. magna 48-h LC50” value (Daphnia magna) of the same compound?
**A.** Its value is 9.6 µg/mL.

**Q.** What about the “D. magna 48-h LC50, additional data in parentheses” value (Daphnia magna) of the same compound?
**A.** Its value is “(25)^l mg/L”.

**Q.** What about the “M. bahia 96-h LC50” value (Mysidopsis bahia) of the same compound?
**A.** The value was 6.6 µg/mL.

**Q.** And the “N. guentheri 24-HR LC50” value (Nothobranchius guentheri)?
**A.** Its value is 39.5 µg/mL.

**Q.** And the “N. guentheri 24-HR EC50” value (Nothobranchius guentheri)?
**A.** The value was 31.11^c mg/L.

**Q.** And the “N. guentheri 24-h EC50” value (Nothobranchius guentheri)?
**A.** Its value is 31 µg/mL.

**Q.** And the “N. guentheri 24-h LC50” value (Nothobranchius guentheri)?
**A.** Its value is 40 µg/mL.

**Q.** Which results are given for Unionized ammonia?
**A.** P. promelas 96-hr LC50 (Pimephales promelas): 1.59 µg/mL; P. promelas 96-h LC50 (Pimephales promelas): 1.6 µg/mL; C. dubia 48-h EC50 (Ceriodaphnia dubia): 2.2 µg/mL; D. magna 48-h LC50 (Daphnia magna): 1.5 µg/mL; M. bahia 96-h LC50 (Mysidopsis bahia): 1.4 µg/mL; N. guentheri 24-HR LC50 (Nothobranchius guentheri): 1.15 µg/mL; N. guentheri 24-HR EC50 (Nothobranchius guentheri): 0.57 mg/L; N. guentheri 24-h EC50 (Nothobranchius guentheri): 0.57 µg/mL; N. guentheri 24-h LC50 (Nothobranchius guentheri): 1.2 µg/mL

**Q.** With `Oc1ccccc1` as the compound, how does the “C. dubia 48-h EC50” value (Ceriodaphnia dubia) read?
**A.** The value was 4.3 µg/mL.

**Q.** And the “S. capricornium 96-h EC50” value (Selenastrum capricornium)?
**A.** The value was 61 µg/mL.

**Q.** What about the “N. guentheri 24-HR EC50” value (Nothobranchius guentheri) of the same compound?
**A.** Its value is 44.6 mg/L.

**Q.** And the “N. guentheri 24-h EC50” value (Nothobranchius guentheri)?
**A.** The value was 45 µg/mL.

**Q.** Which results are given for `CCOC(=O)CC(SP(=S)(OC)OC)C(=O)OCC` (stereo not shown)?
**A.** P. promelas 96-hr LC50 (Pimephales promelas): 11.8 µg/mL; P. promelas 96-h LC50 (Pimephales promelas): 12 µg/mL; D. magna 48-h LC50 (Daphnia magna): 0.001 µg/mL; M. bahia 96-h LC50 (Mysidopsis bahia): 4.2 µg/mL; M. bahia 96-h LC50, additional data in parentheses (Mysidopsis bahia): 0.01 µg/mL; N. guentheri 24-HR LC50 (Nothobranchius guentheri): 6.94 µg/mL; N. guentheri 24-HR EC50 (Nothobranchius guentheri): 2.91 mg/L; N. guentheri 24-h EC50 (Nothobranchius guentheri): 2.9 µg/mL; N. guentheri 24-h LC50 (Nothobranchius guentheri): 6.9 µg/mL

**Q.** What does the source list for cadmium?
**A.** P. promelas 96-hr LC50 (Pimephales promelas): 2.02 µg/mL; P. promelas 96-h LC50 (Pimephales promelas): 2.0 µg/mL; C. dubia 48-h EC50 (Ceriodaphnia dubia): 0.11 µg/mL; S. capricornium 96-h EC50 (Selenastrum capricornium): 0.04 µg/mL; D. magna 48-h LC50 (Daphnia magna): 0.065 µg/mL; M. bahia 96-h LC50 (Mysidopsis bahia): 0.03 µg/mL; M. bahia 96-h LC50, additional data in parentheses (Mysidopsis bahia): 0.02 µg/mL; N. guentheri 24-HR LC50 (Nothobranchius guentheri): 4.2 µg/mL; N. guentheri 24-HR EC50 (Nothobranchius guentheri): 0.73 mg/L; N. guentheri 24-h EC50 (Nothobranchius guentheri): 0.73 µg/mL; N. guentheri 24-h LC50 (Nothobranchius guentheri): 4.2 µg/mL

**Q.** Which “C. dubia 48-h EC50” value (Ceriodaphnia dubia) does the source give for `Oc1c(Cl)c(Cl)c(Cl)c(Cl)c1Cl` here?
**A.** The value was 0.28 µg/mL.

**Q.** And the “S. capricornium 96-h EC50” value (Selenastrum capricornium)?
**A.** The value was 0.34 µg/mL.

**Q.** With copper as the compound, how does the “P. promelas 96-hr LC50” value (Pimephales promelas) read?
**A.** The value was 0.48 µg/mL.

**Q.** What about the “P. promelas 96-h LC50” value (Pimephales promelas) of the same compound?
**A.** The value was 0.48 µg/mL.

**Q.** And the “C. dubia 48-h EC50” value (Ceriodaphnia dubia)?
**A.** Its value is 0.027 µg/mL.

**Q.** What about the “S. capricornium 96-h EC50” value (Selenastrum capricornium) of the same compound?
**A.** The value was 0.04 µg/mL.

**Q.** And the “D. magna 48-h LC50” value (Daphnia magna)?
**A.** Its value is 0.052 µg/mL.

**Q.** And the “D. magna 48-h LC50, additional data in parentheses” value (Daphnia magna)?
**A.** Its value is “(0.16)^c mg/L”.

**Q.** What about the “M. bahia 96-h LC50” value (Mysidopsis bahia) of the same compound?
**A.** The value was 0.16 µg/mL.

**Q.** And the “M. bahia 96-h LC50, additional data in parentheses” value (Mysidopsis bahia)?
**A.** The value was 0.15 µg/mL.

**Q.** And the “N. guentheri 24-HR LC50” value (Nothobranchius guentheri)?
**A.** The value was 0.039 µg/mL.

**Q.** What about the “N. guentheri 24-HR EC50” value (Nothobranchius guentheri) of the same compound?
**A.** Its value is 0.033 mg/L.

**Q.** What about the “N. guentheri 24-h EC50” value (Nothobranchius guentheri) of the same compound?
**A.** Its value is 0.033 µg/mL.

**Q.** What about the “N. guentheri 24-h LC50” value (Nothobranchius guentheri) of the same compound?
**A.** Its value is 0.039 µg/mL.
